In article PMC3273674 (Biochimica et Biophysica Acta, 2011):

Tested on: dsDNA ([…])
Test: DNA binding by fluorescence intercalator displacement
Conditions: C50 normalized compared to BF2

Compound: CC[C@H](C)[C@H](NC(=O)[C@H](CCCNC(=N)N)NC(=O)[C@@H](NC(=O)[C@H](CCCCN)NC(=O)[C@H](CCCCN)NC(=O)[C@H](CC(N)=O)NC(=O)[C@H](CC(=O)O)NC(=O)[C@H](CCCNC(=N)N)NC(=O)[C@H](C)N)[C@@H](C)O)C(=O)N[C@@H](Cc1c[nH]c2ccccc12)C(=O)N1CCC[C@H]1C(=O)N[C@@H](CCCNC(=N)N)C(=O)N[C@@H](Cc1c[nH]cn1)C(=O)N[C@@H](CC(C)C)C(=O)N[C@@H](CCC(N)=O)C(=O)N[C@@H](CC(C)C)C(=O)N[C@@H](C)C(=O)N[C@H](C(=O)N[C@@H](CCCNC(=N)N)C(=O)N[C@@H](CC(N)=O)C(=O)O)C(C)C [DesHDAP1]
- Relative C50: 1.28
